# Results reported in patent US10202345B2, “Substituted azaspiro(4.5)decane derivatives” (priority 2014, dated 2019).
# By UniProt entry, the sequences of proteins in these tests, tags left out. Where a name states a change or a piece, a line headed by the entry shows the natural chain unless it says otherwise.
# UniProt P35372, whole entry, looked up: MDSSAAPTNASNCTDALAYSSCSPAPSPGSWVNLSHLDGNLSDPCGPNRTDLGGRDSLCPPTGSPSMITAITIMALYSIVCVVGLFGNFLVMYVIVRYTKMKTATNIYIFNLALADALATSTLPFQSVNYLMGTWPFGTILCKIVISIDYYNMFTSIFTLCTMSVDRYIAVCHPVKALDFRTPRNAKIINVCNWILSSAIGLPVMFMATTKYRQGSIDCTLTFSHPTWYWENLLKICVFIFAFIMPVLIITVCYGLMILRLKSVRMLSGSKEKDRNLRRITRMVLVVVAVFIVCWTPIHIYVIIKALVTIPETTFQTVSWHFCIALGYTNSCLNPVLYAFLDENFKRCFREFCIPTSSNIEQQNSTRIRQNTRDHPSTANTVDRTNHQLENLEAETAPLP
# UniProt P41146: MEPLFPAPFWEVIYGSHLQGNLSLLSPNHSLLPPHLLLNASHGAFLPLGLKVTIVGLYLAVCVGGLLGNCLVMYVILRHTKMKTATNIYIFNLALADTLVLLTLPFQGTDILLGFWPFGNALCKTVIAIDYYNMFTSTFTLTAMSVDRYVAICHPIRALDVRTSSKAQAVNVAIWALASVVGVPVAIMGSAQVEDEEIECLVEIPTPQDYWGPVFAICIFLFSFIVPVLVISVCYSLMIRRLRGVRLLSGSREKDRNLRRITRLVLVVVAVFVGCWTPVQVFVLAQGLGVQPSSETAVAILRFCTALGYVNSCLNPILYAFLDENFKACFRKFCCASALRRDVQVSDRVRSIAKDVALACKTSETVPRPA
# Key:
# [1] = molecular target: human μ opiate receptor (Homo sapiens, UniProt P35372); assay: μ opiate receptor binding assay with [3H]-naloxone (WGA-SPA beads); details: for Ki: read-out: Ki (μ) mean [μm], mean; for % inhibition (μ) [1 μM]: test concentration 1 μM
# [2] = system: rats; details: @21.5 μg/kg
# [3] = molecular target: ORL1 receptor (Homo sapiens, UniProt P41146); assay: ORL1 receptor binding assay with 3H-nociceptin/orphanin FQ (WGA-SPA beads); details: for Ki: read-out: Ki (ORL1) mean, mean; for % inhibition (ORL1) [1 μM]: test concentration 1 μM
# [4] = system: rats; assay: Analgesia in the tail flick (focal ray) test in rats, intravenous administration
Compound,Ki [1] [nM],% inhibition (μ) [1 μM] [1] [%],"SNL rat, i.v. % MPE (@μg/kg) [2] [%@21.5]",Ki [3] [nM],% inhibition (ORL1) [1 μM] [3] [%],"Tail flick rat, i.v. ED50 rat [μg/kg] [4] [µg/kg]","Tail flick rat, i.v. % MPE (@μg/kg) ([4]; @100 μg/kg) [%@100 % MPE]"
CN(C)C1(c2ccccc2)CCC2(CCN(C(=O)CC3(C#N)CCC3)C2)CC1 (centres unmarked),1.04,100.5,65,0.75,96.5,15.2,–
CN(C)C1(c2ccccc2)CCC2(CCN(C(=O)CC3CCCO3)C2)CC1 (centres unmarked),1.15,99.5,69,1.11,97,16.2,–
CN(C)C1(c2cccs2)CCC2(CCN(C(=O)CC3CCOC3)C2)CC1 (centres unmarked),1.75,99,–,3.4,89,7.16,–
1-(8-Dimethylamino-8-thiophen-2-ylmethyl-2-azaspiro[4.5]dec-2-yl)-butan-1-one,0.4,100,–,1.15,97,0.7,–
CN1CC2(CCC(c3ccccc3)(N(C)C)CC2)CC1=O (centres unmarked),38,95,–,29,82,422,–
COC1(CC(=O)N2CCC3(CCC(C4CCCC4)(N(C)C)CC3)C2)CCC1 (centres unmarked),2.65,98.5,–,10.2,91.5,–,100
COCCN1CCC2(CCC(c3cccs3)(N(C)C)CC2)C1 (centres unmarked),46.5,80.5,–,18,71.5,5260,–
CN(C)C1(c2ccccc2)CCC2(CC1)CC(=O)N(CC1CC1)C2 (centres unmarked),3,99,–,4.7,91,26.8,–
CN(C)C1(c2cccs2)CCC2(CCN(C(=O)CC3CCCO3)C2)CC1 (centres unmarked),1.3,100.5,–,2.05,96,1.86,–
CN(C)C1(c2cccs2)CCC2(CCN(C(=O)CC3(C#N)CC3)C2)CC1 (centres unmarked),1.07,99.5,–,2.95,92,14.6,–
CCCC(=O)N1CCC2(CCC(c3ccc(Cl)s3)(N(C)C)CC2)C1 (centres unmarked),12.5,97.5,–,73.5,72,–,–
CN(C)C1(c2ccccc2)CCC2(CCN(C(=O)CCC(C)(C)O)C2)CC1 (centres unmarked),9.35,97.5,–,15,90,–,–
CN(C)C1(c2cccs2)CCC2(CCN(CC3CCCC3)C2)CC1 (centres unmarked),1.14,98.5,–,0.8,94,–,–
CN(C)C1(C2CCCC2)CCC2(CCN(CCC3(C#N)CCC3)C2)CC1 (centres unmarked),12.3,99,–,93,76.5,–,–
CN(C)C1(c2ccccc2)CCC2(CC1)CC(=O)N(CCC1CC1)C2 (centres unmarked),2060,70,–,235,37.5,–,–
CN1CCC2(CCC(c3cccs3)(N(C)C)CC2)C1=O (centres unmarked),710,34,–,–,30,–,–
CN(C)C1(c2ccccc2)CCC2(CCN(C(=O)CCC3(C#N)CC3)C2)CC1 (centres unmarked),1.06,99,–,0.73,96,–,–
CN(C)C1(c2cccs2)CCC2(CCN(C(=O)C(C)(C)O)C2)CC1 (centres unmarked),52,90.5,–,82,55,–,–
COCC(C)(C)C(=O)N1CCC2(CCC(c3ccc(C)s3)(N(C)C)CC2)C1 (centres unmarked),2.25,98.5,–,48,57.5,–,–
COC(C)(C)CN1CC2(CCC(c3cccs3)(N(C)C)CC2)CC1=O (centres unmarked),2.7,104,–,1.8,96,–,–
CNC1(c2cccs2)CCC2(CCN(C(=O)CCOC)C2)CC1 (centres unmarked),38.5,92,–,120,44.5,–,–
Cc1ccc(C2(N(C)C)CCC3(CCN(C(=O)CC(C)C)C3)CC2)s1 (centres unmarked),4.8,100.5,–,27,84.5,–,–
CN(C)C1(c2ccccc2)CCC2(CC1)CC(=O)N(CC(C)(C)C#N)C2 (centres unmarked),5,96.5,–,5,91,–,–
CN(C)C1(c2ccccc2)CCC2(CCN(CCC3(C#N)CCC3)C2)CC1 (centres unmarked),1.35,98,–,2.3,92.5,–,–
Cc1ccc(C2(N(C)C)CCC3(CCN(C(=O)C4CC4)C3)CC2)s1 (centres unmarked),77,86.5,–,260,34.5,–,–

Compound,Ki [1] [nM],% inhibition (μ) [1 μM] [1] [%],"SNL rat, i.v. % MPE (@μg/kg) [2] [%@21.5]",Ki [3] [nM],% inhibition (ORL1) [1 μM] [3] [%],"Tail flick rat, i.v. ED50 rat [μg/kg] [4] [µg/kg]","Tail flick rat, i.v. % MPE (@μg/kg) ([4]; @100 μg/kg) [%@100 % MPE]"
CN(C)C1(c2cccs2)CCC2(CCN(CC3CC3)C2)CC1 (centres unmarked),8.95,98.5,–,14.5,92.33,–,–
COC1(CCN2CCC3(CCC(C4CCCC4)(N(C)C)CC3)C2)CCC1 (centres unmarked),2.8,98,–,13.6,89,–,–
CN(C)C1(c2cccs2)CCC2(CCN(CC3(C#N)CC3)C2)CC1 (centres unmarked),13,96,–,19,85,–,–
CCCCC1(N(C)C)CCC2(CCN(C(=O)CC3(OC)CCC3)C2)CC1 (centres unmarked),8.25,97.33,–,30,76,–,–
3-(2-cyclopropylethyl)-8-(dimethylamino)-8-phenyl-3-azaspiro[4.5]decan-2-one,0.3,95.5,–,0.66,97,3.25,–
CN(C)C1(C2CCCC2)CCC2(CC1)CC(=O)N(CC1COC1)C2 (centres unmarked),98.5,74.5,–,255,26,–,–
CN(C)C1(c2ccccc2)CCC2(CCN(CC3CCOC3)C2)CC1 (centres unmarked),7.65,95.5,–,19.5,92.5,–,–
COC(C)CCN1CC2(CCC(c3ccccc3)(N(C)C)CC2)CC1=O (centres unmarked),2.4,100,–,1.35,95,–,–
CN(C)C1(C2CCCC2)CCC2(CCN(CC3COC3)C2)CC1 (centres unmarked),60,83,–,123,48,–,–
COCC1(C(=O)N2CCC3(CCC(c4ccc(Cl)s4)(N(C)C)CC3)C2)CCC1 (centres unmarked),5.25,98,–,148,48.5,–,–
CN(C)C1(c2ccccc2)CCC2(CC1)CC(=O)N(CC1CCC1)C2 (centres unmarked),630,37,–,82.5,56.5,–,–
CN(C)C1(C2CCCC2)CCC2(CC1)CC(=O)N(C1CCCC1)C2 (centres unmarked),1.3,99.5,–,20,88,–,–
COC(C)(C)CCN1CCC2(CCC(c3ccccc3)(N(C)C)CC2)C1 (centres unmarked),1.55,100,–,7.3,92,–,–
"CCCC(=O)N1CCC2(CCC(c3ccccc3)(N(C)C)CC2)C1 (single isomer, unassigned)",200,70.5,–,150,49,–,–
CN(C)C1(c2ccccc2)CCC2(CCN(C(=O)CC3(C#N)CC3)C2)CC1 (centres unmarked),1.65,99,–,2.47,94.5,78.6,–
CN(C)C1(c2ccccc2)CCC2(CCN(C(=O)C3CCC3)C2)CC1 (centres unmarked),3.2,99.5,–,2.1,94,–,–
CN(C)C1(c2ccccc2)CCC2(CC1)CC(=O)N(CC1(C#N)CCC1)C2 (centres unmarked),1.55,100.5,–,0.61,98,–,–
CN(C)C1(c2ccccc2)CCC2(CC1)CC(=O)N(CC(C)(C)O)C2 (centres unmarked),44,91.5,–,10.2,77,–,–
CN(C)C1(c2cccs2)CCC2(CCN(C(=O)C3(O)CCC3)C2)CC1 (centres unmarked),5.45,99.5,–,18.5,81.5,–,–
CCCCC1(N(C)C)CCC2(CCN(C(=O)CC3CCOC3)C2)CC1 (centres unmarked),51,90,–,405,20.5,–,–
CNC1(c2cccs2)CCC2(CCN(CCC3CCC3)C2)CC1 (centres unmarked),1.65,101,–,4.35,93.5,–,–
CN(C)C1(c2ccccc2)CCC2(CCN(C(=O)C3CCOCC3)C2)CC1 (centres unmarked),64,92.5,–,54,78.5,–,–
CCOC(C)CN1CC2(CCC(c3ccccc3)(N(C)C)CC2)CC1=O (centres unmarked),4.3,99,–,1.5,95.5,–,–
CN(C)C1(c2ccccc2)CCC2(CCN(CCC3(O)CC3)C2)CC1 (centres unmarked),2.55,99,–,3.4,95,–,–
